The text below walks through data of paper PMC9357092 (Clinical Cancer Research, 2022).

Each structure is given as a SMILES string.

This series can be described thus: Whole-body-4Brain PBPK model simulation of plasma and CNS pharmacokinetics. Particulars: PBPK input.

In the case of `CS(=O)(=O)CCNCc1ccc(-c2ccc3ncnc(Nc4ccc(OCc5cccc(F)c5)c(Cl)c4)c3c2)o1` [lapatinib], where the note is “assigned based on observed data”, the fa is given as 0.5. Also, the Ka (first-order absorption rate constant, observed) was 0.3. The Lag time (observed) is given as 0.5 h.
